Patent US7112341B1, “Pulmonary administration of dry powder formulations for treating infertility” (Nektar Therapeutics, priority 1999, dated 2006)

Test: Pharmacokinetics of uFSH following pulmonary and subcutaneous administration in cynomolgus monkeys
Format: in vivo
Details: for Percent Bioavailability: PUL 37.2 ± 3.9 μg/kg (high dose) relative to SC, from AUC0-∞, inhaled dose
[1] = PUL 37.2 ± 3.9 μg/kg (high dose), individual animals
[2] = PUL 37.2 ± 3.9 μg/kg (high dose), mean

uFSH: FSH derived from human urine (Vitro Diagnostics, Inc.); mixture of hFSH and hFSH analogs
Serum concentration of immunoreactive FSH (PUL 18.4 ± 1.3 μg/kg, 0.5 h, mean): 0 mIU/mL
Serum concentration of immunoreactive FSH (PUL 18.4 ± 1.3 μg/kg, 1 h, individual animals): BQL (4×) and 4.4 mIU/mL
Serum concentration of immunoreactive FSH (PUL 18.4 ± 1.3 μg/kg, 1 h, mean): 0.9 mIU/mL
Serum concentration of immunoreactive FSH (PUL 18.4 ± 1.3 μg/kg, 3 h, individual animals): 6.9 mIU/mL and 13.1 mIU/mL and 6.4 mIU/mL and 5.5 mIU/mL and 16.6 mIU/mL
Serum concentration of immunoreactive FSH (PUL 18.4 ± 1.3 μg/kg, 3 h, mean): 9.7 mIU/mL
Serum concentration of immunoreactive FSH (PUL 18.4 ± 1.3 μg/kg, 6 h, individual animals): 20.0 mIU/mL and 21.0 mIU/mL and 16.6 mIU/mL and 18.8 mIU/mL and 33.0 mIU/mL
Serum concentration of immunoreactive FSH (PUL 18.4 ± 1.3 μg/kg, 6 h, mean): 21.9 mIU/mL
Serum concentration of immunoreactive FSH (PUL 18.4 ± 1.3 μg/kg, 9 h, individual animals): 29.1 mIU/mL and 24.3 mIU/mL and 19.4 mIU/mL and 17.2 mIU/mL and 40.1 mIU/mL
Serum concentration of immunoreactive FSH (PUL 18.4 ± 1.3 μg/kg, 9 h, mean): 26.0 mIU/mL
Serum concentration of immunoreactive FSH (PUL 18.4 ± 1.3 μg/kg, 12 h, mean): 27.3 mIU/mL
Serum concentration of immunoreactive FSH (PUL 18.4 ± 1.3 μg/kg, 24 h, individual animals): 19.6^(2) mIU/mL and 20.4^(2) mIU/mL and 13.7^(2) mIU/mL and 16.3^(2) mIU/mL and 31.3^(2) mIU/mL
Serum concentration of immunoreactive FSH (PUL 18.4 ± 1.3 μg/kg, 24 h, mean): 20.3 mIU/mL
Serum concentration of immunoreactive FSH (PUL 18.4 ± 1.3 μg/kg, 48 h, individual animals): 7.4^(2) mIU/mL and 9.3^(2) mIU/mL and 6.9^(2) mIU/mL and 9.0^(2) mIU/mL and 10.7^(2) mIU/mL
Serum concentration of immunoreactive FSH (PUL 18.4 ± 1.3 μg/kg, 48 h, mean): 8.7 mIU/mL
Serum concentration of immunoreactive FSH (PUL 18.4 ± 1.3 μg/kg, 72 h, individual animals): 3.9^(2) mIU/mL and 4.5^(2) mIU/mL and 3.0^(2) mIU/mL and 5.3^(2) mIU/mL and 4.2^(2) mIU/mL
Serum concentration of immunoreactive FSH (PUL 18.4 ± 1.3 μg/kg, 72 h, mean): 4.2 mIU/mL
Percent Bioavailability (individual animals): 9.3% and 3.2% and 13.6% and 4.4% and 6.4%
Percent Bioavailability (mean): 7.4%
AUC0–t [1]: 3023.6 mIU*h/mL and 1574.9 mIU*h/mL and 5069.1 mIU*h/mL and 1506.5 mIU*h/mL and 1601 mIU*h/mL
AUC0–∞ [1]: 3554.7 mIU*h/mL and 1981.5 mIU*h/mL and 5659.1 mIU*h/mL and 1845.2 mIU*h/mL and 1790.4 mIU*h/mL
CMax [1]: 82.4 mIU/mL and 36.0 mIU/mL and 155.0 mIU/mL and 36.7 mIU/mL and 39.8 mIU/mL
Half-Life [1]: 25.3 h and 29.4 h and 20.52 h and 27.9 h and 20.9 h
TMax [1]: 9.3 h and 12.3 h (4×)
AUC0–t [2]: 2555.0 mIU*h/mL and 2555 mIU*h/mL
AUC0–∞ [2]: 2968.0 mIU*h/mL and 2968 mIU*h/mL
CMax [2]: 70.0 mIU/mL
Half-Life [2]: 24.3 h
TMax [2]: 11.7 h
Serum concentration of immunoreactive FSH (PUL 37.2 ± 3.9 μg/kg (high dose, powder 2010), 0 h (predose), individual animals): BQL
Serum concentration of immunoreactive FSH (PUL 37.2 ± 3.9 μg/kg (high dose, powder 2010), 0 h (predose), mean): 0 mIU/mL
Serum concentration of immunoreactive FSH (PUL 37.2 ± 3.9 μg/kg, 0.33 h, individual animals): BQL
Serum concentration of immunoreactive FSH (PUL 37.2 ± 3.9 μg/kg, 0.33 h, mean): 0 mIU/mL
Serum concentration of immunoreactive FSH (PUL 37.2 ± 3.9 μg/kg, 0.5 h, individual animals): BQL (4×) and 4.3 mIU/mL
Serum concentration of immunoreactive FSH (PUL 37.2 ± 3.9 μg/kg, 0.5 h, mean): 0.86 mIU/mL
Serum concentration of immunoreactive FSH (PUL 37.2 ± 3.9 μg/kg, 0.75 h, individual animals): 3.8 mIU/mL and BQL (3×) and 6.6 mIU/mL
Serum concentration of immunoreactive FSH (PUL 37.2 ± 3.9 μg/kg, 0.75 h, mean): 2.1 mIU/mL
Serum concentration of immunoreactive FSH (PUL 37.2 ± 3.9 μg/kg, 1.25 h, individual animals): 57.6 mIU/mL and BQL (2×) and 31.0 mIU/mL and 4.7 mIU/mL
Serum concentration of immunoreactive FSH (PUL 37.2 ± 3.9 μg/kg, 1.25 h, mean): 18.7 mIU/mL
Serum concentration of immunoreactive FSH (PUL 37.2 ± 3.9 μg/kg, 3.25 h, individual animals): 32.7 mIU/mL and 10.4 mIU/mL and 50.1 mIU/mL and 12.2 mIU/mL and 13.4 mIU/mL
Serum concentration of immunoreactive FSH (PUL 37.2 ± 3.9 μg/kg, 3.25 h, mean): 23.8 mIU/mL
Serum concentration of immunoreactive FSH (PUL 37.2 ± 3.9 μg/kg, 6.25 h, individual animals): 69.3 mIU/mL and 22.7 mIU/mL and 85.2 mIU/mL and 23.7 mIU/mL and 29.0 mIU/mL
Serum concentration of immunoreactive FSH (PUL 37.2 ± 3.9 μg/kg, 6.25 h, mean): 46.0 mIU/mL
Serum concentration of immunoreactive FSH (PUL 37.2 ± 3.9 μg/kg, 9.25 h, individual animals): 82.4 mIU/mL and 30.6 mIU/mL and 132.8 mIU/mL and 33.8 mIU/mL and 36.8 mIU/mL
Serum concentration of immunoreactive FSH (PUL 37.2 ± 3.9 μg/kg, 9.25 h, mean): 63.3 mIU/mL
Serum concentration of immunoreactive FSH (PUL 37.2 ± 3.9 μg/kg, 12.25 h, individual animals): 72.5^(2) mIU/mL and 36.0^(2) mIU/mL and 155.0^(2) mIU/mL and 36.7^(2) mIU/mL and 39.8^(2) mIU/mL
Serum concentration of immunoreactive FSH (PUL 37.2 ± 3.9 μg/kg, 12.25 h, mean): 68.0 mIU/mL
Serum concentration of immunoreactive FSH (PUL 37.2 ± 3.9 μg/kg, 24.25 h, individual animals): 55.4^(2) mIU/mL and 32.7^(2) mIU/mL and 94.6^(2) mIU/mL and 30.4^(2) mIU/mL and 36.6^(2) mIU/mL
Serum concentration of immunoreactive FSH (PUL 37.2 ± 3.9 μg/kg, 24.25 h, mean): 49.9 mIU/mL
Serum concentration of immunoreactive FSH (PUL 37.2 ± 3.9 μg/kg, 48.25 h, individual animals): 29.3^(2) mIU/mL and 17.5^(2) mIU/mL and 47.8^(2) mIU/mL and 15.5^(2) mIU/mL and 14.2^(2) mIU/mL
Serum concentration of immunoreactive FSH (PUL 37.2 ± 3.9 μg/kg, 48.25 h, mean): 24.9 mIU/mL
Serum concentration of immunoreactive FSH (PUL 37.2 ± 3.9 μg/kg, 72.25 h, individual animals): 14.1^(2) mIU/mL and 9.2^(2) mIU/mL and 19.4^(2) mIU/mL and 8.6^(2) mIU/mL and 6.0^(2) mIU/mL
Serum concentration of immunoreactive FSH (PUL 37.2 ± 3.9 μg/kg, 72.25 h, mean): 11.5 mIU/mL
Bioavailability (%) (SC 2 μg/kg (reference route), mean): 100%
Serum concentration of immunoreactive FSH (SC 2 μg/kg, 0 h (predose), individual animals): BQL^(1) and BQL (4×)
Serum concentration of immunoreactive FSH (SC 2 μg/kg, 0 h (predose), mean): 0 mIU/mL
Serum concentration of immunoreactive FSH (SC 2 μg/kg, 1 h, individual animals): 5.3 mIU/mL (2×) and 4.6 mIU/mL and BQL (2×)
Serum concentration of immunoreactive FSH (SC 2 μg/kg, 1 h, mean): 3.0 mIU/mL
Serum concentration of immunoreactive FSH (SC 2 μg/kg, 3 h, individual animals): 20.9 mIU/mL and 63.7 mIU/mL and 28.2 mIU/mL and 65.5 mIU/mL and 36.3 mIU/mL
Serum concentration of immunoreactive FSH (SC 2 μg/kg, 3 h, mean): 42.9 mIU/mL
Serum concentration of immunoreactive FSH (SC 2 μg/kg, 6 h, individual animals): 25.4 mIU/mL and 75.7 mIU/mL and 28.9 mIU/mL and 97.1 mIU/mL and 68.5 mIU/mL
Serum concentration of immunoreactive FSH (SC 2 μg/kg, 6 h, mean): 59.1 mIU/mL
Serum concentration of immunoreactive FSH (SC 2 μg/kg, 9 h, individual animals): 20.2 mIU/mL and 58.3 mIU/mL and 31.5 mIU/mL and 71.3 mIU/mL and 76.0 mIU/mL
Serum concentration of immunoreactive FSH (SC 2 μg/kg, 9 h, mean): 51.5 mIU/mL
Serum concentration of immunoreactive FSH (SC 2 μg/kg, 12 h, individual animals): 18.7^(2) mIU/mL and 46.8^(2) mIU/mL and 33.4^(2) mIU/mL and 55.0^(2) mIU/mL and 54.3^(2) mIU/mL
Serum concentration of immunoreactive FSH (SC 2 μg/kg, 12 h, mean): 41.6 mIU/mL
Serum concentration of immunoreactive FSH (SC 2 μg/kg, 24 h, individual animals): 20.7^(2) mIU/mL and 36.8^(2) mIU/mL and 29.1^(2) mIU/mL and 38.0^(2) mIU/mL and 40.5^(2) mIU/mL
Serum concentration of immunoreactive FSH (SC 2 μg/kg, 24 h, mean): 33.0 mIU/mL
Serum concentration of immunoreactive FSH (SC 2 μg/kg, 48 h, individual animals): 15.7^(2) mIU/mL and 20.8^(2) mIU/mL and 17.4^(2) mIU/mL (2×) and 14.5^(2) mIU/mL
Serum concentration of immunoreactive FSH (SC 2 μg/kg, 48 h, mean): 17.2 mIU/mL
Serum concentration of immunoreactive FSH (SC 2 μg/kg, 72 h, individual animals): 9.2^(2) mIU/mL and 9.8^(2) mIU/mL and 8.4^(2) mIU/mL and 8.6^(2) mIU/mL and 5.8^(2) mIU/mL
Serum concentration of immunoreactive FSH (SC 2 μg/kg, 72 h, mean): 8.4 mIU/mL
AUC0–t (SC 2 μg/kg, individual animals): 1197.1 mIU*h/mL and 2198.4 mIU*h/mL and 1544.4 mIU*h/mL and 2294.2 mIU*h/mL and 2078.1 mIU*h/mL
AUC0–∞ (SC 2 μg/kg, individual animals): 2013.4 mIU*h/mL and 2594.5 mIU*h/mL and 1932.5 mIU*h/mL and 2566.8 mIU*h/mL and 2231.3 mIU*h/mL
CMax (SC 2 μg/kg, individual animals): 25.4 mIU/mL and 75.7 mIU/mL and 33.4 mIU/mL and 97.1 mIU/mL and 76.0 mIU/mL
Half-Life (SC 2 μg/kg, individual animals): 55.5 h and 26.6 h and 29.8 h and 22.3 h and 18.1 h
TMax (SC 2 μg/kg, individual animals): 6.0 h (3×) and 12.0 h and 9.0 h
AUC0–t (SC 2 μg/kg, mean): 1862.4 mIU*h/mL and 1862 mIU*h/mL
AUC0–∞ (SC 2 μg/kg, mean): 2267.7 mIU*h/mL and 2268 mIU*h/mL
CMax (SC 2 μg/kg, mean): 61.5 mIU/mL
Half-Life (SC 2 μg/kg, mean): 26.4 h
TMax (SC 2 μg/kg, mean): 7.8 h
terminal half-life (monkey, pulmonary similar to subcutaneous): approximately 24 hours
time of peak serum concentrations (monkey, pulmonary, mannitol/citrate formulation): approximately 10 hours

Values joined by “and” are separate entries in the source; they are usually repeats but may differ in a detail not shown here. Identical values can stand only once.
